Reference: PubChem BioAssay (Tox21)
Where “and” joins values, the source holds several entries; their conditions need not be identical. Equal values may be shown once. Only a part is listed here, and it is no random draw. Records with an inconclusive call do not appear. Calls of active or inactive are those of the source. Calls follow the shape of the dose curve; as a rule, active = well fitted cell-killing curve with a large enough effect in the repeat runs; inconclusive = weak or mixed curves, or effect the other way; inactive = no such curve, though single readings can be large or run the other way.

Test: qHTS assay to identify small molecule antagonists of the glucocorticoid receptor (GR) signaling pathway - cell viability counter screen (AID 720693); also: nearly all actives have a fitted effect of over 55% in size
Conditions: GR-bla HeLa viability, CellTiter-Glo luminescence, 18 h; at 27 µM (top of the series); with 5 nM dexamethasone present
From the text: National Center for Advancing Translational Sciences [NCATS]
NIH Chemical Genomics Center [NCGC]
U.S. Environmental Protection Agency [EPA]
National Institutes of Environmental Health Sciences [NIEHS]
National Toxicology Program [NTP]
U.S. Food and Drug Administration [FDA]
The Glucocorticoid receptor (GR) is one of the members of the nuclear receptor family of ligand-dependent transcription factors. GR plays a critical role in carbohydrate, protein and lipid metabolisms and programmed cell death. CellSensor GR-bla HeLa cell line (Invitrogen) contains a beta-lactamase reporter gene under the control of the glucocorticoid response element stably integrated into HeLa cells, a cervical cancer cell line that expresses glucocorticoid receptor. The activation of the reporter gene under culture conditions can be detected by fluorescence intensity. This cell line has been used to screen the Tox21 10K compound library and to identify the compounds that inhibit the GR signaling. The cytotoxicity of the Tox21 compound library against the GR-bla HeLa cell line was tested in parallel by measuring the cell viability using CellTiter-Glo assay in the same wells.
Tox21 Assay Protocol Summary:
The GR-bla HeLa cells were dispensed at 1500 cells/5 ul/well in 1536-well black wall/clear bottom plates using a Multidrop Combi (ThermoFisher Scientific, Waltham, MA) dispenser. After the assay plates were incubated at a 37 C/5% CO2 incubator for 4 hours, 23 nL of compounds dissolved in DMSO, positive controls or DMSO only was transferred to the assay plate by a pintool station (Kalypsys, San Diego, CA), followed by addition of 1 uL of dexamethasone (5 nM, final concentration in the well). The plates were incubated at 37 C for 18 hours. After 1 uL of LiveBLAzerTM B/G FRET substrate was added using a Flying Reagent Dispenser (Aurora Discovery, San Diego, CA), the plates were incubated at room temperature (RT) for 2 hours, and fluorescence intensity was measured by an Envision plate reader (PerkinElmer, Shelton, CT). After measurement of bla assay, 3 ul CellTiter-Glo (Promega, Madison, WI) was added to measure the cytotoxicity and the plates were then incubated at RT for 30 min. The luminescence was measured using a ViewLux (Perkin Elmer) plate reader.
% is scaled to controls: 0 for no effect and ±100 for the full control effect.

Row | Compound | viability change, negative = cytotoxic
1 | C/C1=C2N=C(/C=C3N=C(/C(C)=C4\[N-][C@@](C)([C@@H]5N=C1[C@](C)(CCC(=O)NC[C@@H](C)OP(=O)([O-])O[C@H]1[C@@H](O)[C@@H](n6cnc7cc(C)c(C)cc76)O[C@@H]1CO)[C@H]5CC(N)=O)[C@@](C)(CC(N)=O)[C@@H]4CCC(N)=O)[C@@](C)(CC(N)=O)[C@@H]\3CCC(N)=O)C(C)(C)[C@@H]/2CCC(N)=O.[C-]#N.[Co+3] | inactive: 1.65%

Same assay, conditions: GR-bla HeLa viability, CellTiter-Glo luminescence, 18 h; at 58.5 µM (top of the series); with 5 nM dexamethasone present

Row | Compound | viability change, negative = cytotoxic
2 | CC(C)OP(=O)(F)OC(C)C | inactive: 10.9%
3 | OCCSCCO | inactive: -9.39%
4 | CN(C)CCS | inactive: -7.13%
5 | COP(C)(=O)OC | inactive: 19.9%
6 | CCOP(=O)(CC)OCC | inactive: 16.5%
7 | CP(=O)(O)OCCC[Si](O)(O)O | inactive: -4.37%
8 | Cc1ccc([N+](=O)[O-])cc1[N+](=O)[O-] | inactive: -10.3% and inactive: 8.07%
9 | Cc1c([N+](=O)[O-])cccc1[N+](=O)[O-] | inactive: 0.291% and inactive: 8.94%
10 | CC(C)N(CCCl)C(C)C | inactive: 7.34%
11 | CC(C)OP(C)(=O)OC(C)C | inactive: 0.866% and inactive: 7.43%
12 | CC(C)N(CCO)C(C)C | inactive: -8.28%
13 | O=[N+]([O-])OCC(CO[N+](=O)[O-])(CO[N+](=O)[O-])CO[N+](=O)[O-] | inactive: 4.61% and inactive: -1.53%
14 | CCOP(=O)(CC)Oc1ccc([N+](=O)[O-])cc1 (stereo not given) | inactive: -9.67%
15 | O=[N+]([O-])[O-].[NH4+] | inactive: -3.19% and inactive: -0.49% and inactive: 6.63%
16 | COc1ccc([N+](=O)[O-])cc1[N+](=O)[O-] | inactive: -0.33%
17 | O=[N+]([O-])c1cccc([N+](=O)[O-])c1 | inactive: 1.45%
18 | Cc1ccc([N+](=O)[O-])c([N+](=O)[O-])c1 | inactive: 14.9%

Same assay, conditions: GR-bla HeLa viability, CellTiter-Glo luminescence, 18 h; at 78.9 µM (top of the series); with 5 nM dexamethasone present

Row | Compound | viability change, negative = cytotoxic
19 | N=C(N)N[N+](=O)[O-] | inactive: -11.7%
20 | OCCSCCO | inactive: 13.3%
21 | COP(C)(=O)OC | inactive: -0.201%
22 | O=[N+]([O-])c1cccc([N+](=O)[O-])c1 | inactive: -13%
23 | CCN(CC)CCCl | inactive: -3.22%
24 | Cc1ccc([N+](=O)[O-])c([N+](=O)[O-])c1 | inactive: 3.34%
25 | Nc1cc([N+](=O)[O-])cc([N+](=O)[O-])c1O | inactive: -11.2%
